B1: Flag-C1QBP, full length [not stated] / PA28γ in 293T cells (co-immunoprecipitation of Figure 1J) [human (endogenous in 293T)] (parent complex)
chain 1: LHTDGDKAFVDFLSDEIKEERKIQKHKTLPKMSGGWELELNGTEAKLVRKVAGEKITVTFNINNSIPPTFDGEEEPSQGQKVEEQEPELTSTPNFVVEVIKNDDGKKALVLDCHYPEDEVGQEDEAESDIFSIREVSFQSTGESEWKDTNYTLNTDSLDWALYDHLMDFLADRGVDNTFADELVELSTALEHQEYITFLEDLKSFVKSQ
chain 2: MASLLKVDQEVKLKVDSFRERITSEAEDLVANFFPKKLLELDSFLKEPILNIHDLTQIHSDMNLPVPDPILLTNSHDGLDGPTYKKRRLDECEEAFQGTKVFVMPNGMLKSNQQLVDIIEKVKPEIRLLIEKCNTVKMWVQLLIPRIEDGNNFGVSIQEETVAELRTVESEAASYLDQISRYYITRAKLVSKIAKYPHVEDYRRTVTEIDEKEYISLRLIISELRNQYVTLHDMILKNIEKIKRPRSSNAETLY

Variants of B1 are the subject of the test. In words: co-immunoprecipitation (IP, western blot with band densitometry printed under lanes); 293T cells transfected for 48 hr; parent: 5.3.
chain 1 LHTDNDKAFVDFLSDEIKEERKIQKHKTLPKMSGGWELELNGTEAKLVRKVAGEKITVTFNINNSIPPTFDGEEEPSQGQKVEEQEPELTSTPNFVVEVIKNDDGKKALVLDCHYPEDEVGQEDEAESDIFSIREVSFQSTGESEWKDTNYTLNTDSLDWALYDHLMDFLADRGVDNTFADELVELSTALEHQEYITFLEDLKSFVKSQ [chain 1 G5N]: the response was 1 relative Flag band intensity in IP.

The values are drawn from article PMC12310199 (2025).
